From BindingDB's records for 3746817

Protein sequences, listed by entry. Tags and fused reporters are not part of them. Residues count along the entry.
UniProt P22303, 32-614 limits assumed: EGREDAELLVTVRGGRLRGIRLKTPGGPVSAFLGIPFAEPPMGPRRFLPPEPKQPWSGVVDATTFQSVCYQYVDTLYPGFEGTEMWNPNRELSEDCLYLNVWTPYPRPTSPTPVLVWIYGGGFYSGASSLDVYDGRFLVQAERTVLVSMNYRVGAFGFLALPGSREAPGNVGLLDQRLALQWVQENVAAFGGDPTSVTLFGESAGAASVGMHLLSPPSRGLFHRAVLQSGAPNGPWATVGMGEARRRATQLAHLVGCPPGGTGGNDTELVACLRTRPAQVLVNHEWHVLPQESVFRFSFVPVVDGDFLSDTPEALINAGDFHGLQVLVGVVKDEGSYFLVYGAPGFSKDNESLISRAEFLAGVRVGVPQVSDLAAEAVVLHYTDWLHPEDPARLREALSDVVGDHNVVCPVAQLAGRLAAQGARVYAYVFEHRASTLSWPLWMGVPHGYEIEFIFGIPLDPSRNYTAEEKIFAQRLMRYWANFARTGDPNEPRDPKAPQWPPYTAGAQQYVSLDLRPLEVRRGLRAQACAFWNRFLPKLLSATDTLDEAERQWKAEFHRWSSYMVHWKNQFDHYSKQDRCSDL

These molecules were tested against Acetylcholinesterase (Homo sapiens, UniProt P22303) (assay: ASSAY_NAME: ChEBML_28147 DESCRIPTION: Reversible inhibition of Human AchE).
`CC[N+](C)(CC)CCSC(N=O)C(=O)c1ccc(OC)cc1` (centres undefined) showed an IC50 of over 1000 µM. In the case of `CN(C)CCSC(N=O)C(=O)c1ccc(Br)cc1` (centres undefined), the IC50 is reported as 710 µM. In the case of `CCN(CC)CCSC(N=O)C(=O)c1ccc(Cl)cc1` (centres undefined), the IC50 is reported as 520 µM. `CC(C)N(CCSC(N=O)C(=O)c1ccc(Cl)cc1)C(C)C` (centres undefined) was tested, and the IC50 was 330 µM. Work on `CCN(CC)CCSC(N=O)C(=O)c1ccc(C#N)cc1` (centres undefined) yielded an IC50 of 180 µM. Work on `CN(C)CCSC(N=O)C(=O)c1ccc(Cl)cc1` (centres undefined) yielded an IC50 of over 1000 µM. In the case of `CCN(CC)CCSC(N=O)C(=O)c1ccccc1` (centres undefined), the IC50 is reported as over 1000 µM. `CC[N+](C)(CC)CCSC(N=O)C(=O)c1ccc(F)cc1` (centres undefined) was tested, and the IC50 was 720 µM. For `COc1ccc(C(=O)C(N=O)SCC[N+](C)(C)C)cc1` (centres undefined), the IC50 was over 1000 µM. With `COc1ccc(C(=O)C(N=O)SCCN(C)C)cc1` (centres undefined) the IC50 was over 1000 µM. `C[N+](C)(C)CCSC(N=O)C(=O)c1ccc(F)cc1` (centres undefined) showed an IC50 of over 1000 µM. `CCN(CC)CCSC(N=O)C(=O)c1ccc(OC)cc1` (centres undefined) gave an IC50 of 260 µM. `CCN(CC)CCSC(N=O)C(=O)c1ccc(Br)cc1` (centres undefined) was tested, and the IC50 was 210 µM. `CN(C)CCCSC(N=O)C(=O)c1ccc(Br)cc1` (centres undefined) showed an IC50 of over 1000 µM. For `Cc1ccc(C(=O)C(N=O)SCCN(C)C)cc1` (centres undefined), the IC50 was over 1000 µM. `Cc1ccc(C(=O)C(N=O)SCC[N+](C)(C)C)cc1` (centres undefined) gave an IC50 of over 1000 µM. `CC[N+](C)(CC)CCSC(N=O)C(=O)c1ccc(Cl)cc1` (centres undefined) was tested, and the IC50 was over 1000 µM. For `C[N+](C)(C)CCSC(N=O)C(=O)c1ccc(Br)cc1` (centres undefined), the IC50 was over 1000 µM. In the case of `CC[N+](C)(CC)CCSC(N=O)C(=O)c1ccc(C#N)cc1` (centres undefined), the IC50 is reported as over 1000 µM.
